The supplement of paper PMC9005190

Chains of the proteins cited; added tags and fusions are not shown. Lines headed by an entry give the natural chain unless they say otherwise; changes in a name come on top.
UniProt P43116: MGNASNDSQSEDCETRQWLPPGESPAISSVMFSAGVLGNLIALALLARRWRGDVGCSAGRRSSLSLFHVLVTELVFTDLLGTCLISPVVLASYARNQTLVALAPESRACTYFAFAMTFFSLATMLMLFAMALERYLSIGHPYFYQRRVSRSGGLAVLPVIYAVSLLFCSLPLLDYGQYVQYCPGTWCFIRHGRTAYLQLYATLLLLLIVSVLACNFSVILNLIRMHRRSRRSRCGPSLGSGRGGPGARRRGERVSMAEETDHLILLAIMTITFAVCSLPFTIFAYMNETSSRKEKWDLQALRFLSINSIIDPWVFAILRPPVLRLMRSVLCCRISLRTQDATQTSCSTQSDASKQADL

Columns and labels:
[1] = target: T1, CTR (UniProt P30988); assay: pEC50 of agonist-induced pathway activation (ebBRET)
T1 sequence (whole entry): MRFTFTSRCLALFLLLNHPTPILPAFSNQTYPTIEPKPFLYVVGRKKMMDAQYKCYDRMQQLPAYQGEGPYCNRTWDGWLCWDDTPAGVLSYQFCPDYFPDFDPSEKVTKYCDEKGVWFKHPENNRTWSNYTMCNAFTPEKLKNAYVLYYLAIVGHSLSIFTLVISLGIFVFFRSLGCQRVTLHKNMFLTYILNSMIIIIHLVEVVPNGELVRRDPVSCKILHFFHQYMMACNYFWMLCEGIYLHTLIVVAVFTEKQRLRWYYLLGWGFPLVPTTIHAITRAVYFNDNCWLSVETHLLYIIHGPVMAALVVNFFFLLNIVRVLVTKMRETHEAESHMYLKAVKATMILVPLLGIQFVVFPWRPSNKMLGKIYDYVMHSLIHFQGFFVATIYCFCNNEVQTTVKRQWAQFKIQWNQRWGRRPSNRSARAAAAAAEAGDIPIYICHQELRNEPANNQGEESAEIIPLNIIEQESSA

[2] = target: EP2 (UniProt P43116); assay: as above
[3] = pathway (G protein / arrestin sensor): G12
[4] = pathway (G protein / arrestin sensor): G15
[5] = pathway (G protein / arrestin sensor): Gs
[6] = pathway (G protein / arrestin sensor): Gz
[7] = pathway (G protein / arrestin sensor): βarr1/GRK2
[8] = pathway (G protein / arrestin sensor): βarr2
[9] = pathway (G protein / arrestin sensor): βarr2/GRK2

Row | pEC50 ([1]; pathway (G protein / arrestin sensor): G11) | pEC50 [1, 3] | pEC50 ([1]; pathway (G protein / arrestin sensor): G13) | pEC50 ([1]; pathway (G protein / arrestin sensor): G14) | pEC50 [1, 4] | pEC50 ([1]; pathway (G protein / arrestin sensor): Gi1) | pEC50 ([1]; pathway (G protein / arrestin sensor): Gi2) | pEC50 ([1]; pathway (G protein / arrestin sensor): GoA) | pEC50 ([1]; pathway (G protein / arrestin sensor): GoB) | pEC50 ([1]; pathway (G protein / arrestin sensor): Gq) | pEC50 [1, 5] | pEC50 [1, 6] | pEC50 [1, 7] | pEC50 [1, 8] | pEC50 [1, 9] | pEC50 [2, 3] | pEC50 [2, 4] | pEC50 [2, 5] | pEC50 [2, 6] | pEC50 [2, 7] | pEC50 [2, 8] | pEC50 [2, 9] | SMILES
1 | 8.22 | 9.61 | 10.1 | 8.43 | 10.6 | 8.35 | 8.49 | 8.54 | 9.06 | 8.65 | 12 | 8.26 | 8.28 | 8.17 | 8.21 |  |  |  |  |  |  |  | CC[C@H](C)[C@H](NC(=O)[C@H](C)NC(=O)[C@@H](NC(=O)[C@H](CCC(N)=O)NC(=O)[C@@H]1CCCN1C(=O)[C@H](Cc1ccccc1)NC(=O)[C@@H](NC(=O)[C@H](Cc1c[nH]cn1)NC(=O)[C@H](Cc1ccccc1)NC(=O)[C@H](CCCCN)NC(=O)[C@H](CC(N)=O)NC(=O)[C@H](Cc1ccccc1)NC(=O)[C@H](CC(=O)O)NC(=O)[C@H](CCC(N)=O)NC(=O)[C@@H](NC(=O)[C@H](Cc1ccc(O)cc1)NC(=O)[C@@H](NC(=O)CNC(=O)[C@H](CC(C)C)NC(=O)[C@H](CCSC)NC(=O)[C@@H]1CSSC[C@H](N)C(=O)NCC(=O)N[C@@H](CC(N)=O)C(=O)N[C@@H](CC(C)C)C(=O)N[C@@H](CO)C(=O)N[C@@H]([C@@H](C)O)C(=O)N1)[C@@H](C)O)[C@@H](C)O)[C@@H](C)O)[C@@H](C)O)C(=O)NCC(=O)N[C@H](C(=O)NCC(=O)N[C@@H](C)C(=O)N1CCC[C@H]1C(N)=O)C(C)C [Calcitonin]
2 |  |  |  |  |  |  |  |  |  |  |  |  |  |  |  | 6.38 | 6.62 | 9.46 | 6.43 | 6.51 | 7.26 | 6.92 | CCCCC[C@H](O)/C=C/[C@H]1[C@H](O)CC(=O)[C@@H]1C/C=C\CCCC(=O)O [PGE2]
